From article PMC12196476, “New Nitrogen-, Oxygen-, and Sulfur-Containing Heterocyclic Compounds as Anti-Colon Cancer Agents: Synthesis, Multitargeted Evaluations, Molecular Docking Simulations and ADMET Predictions” (Pharmaceuticals, 2025)

Molecular target: recombinant human LDHA protein (Homo sapiens, UniProt P00338)
Assay: In vitro LDHA inhibitory assay (NADH consumption)
Type: biochemical
Settings: three independent experiments; read-out: Mean IC50 µM ± SD, LDHA
Text: The LDHA inhibitory efficiencies were investigated on Spectramax M2 spectrofluorometer via measuring the amounts of the consumed NADH^40 using an NAD^+/NADH quantification kit. […]
S3.2.3. In vitro LDHA inhibitory assay.
The LDHA inhibitory activity of the test compounds was investigated using Spectramax M2
spectrofluorometer by measuring the amounts of the consumed NADH [42] employing
NAD+/NADH quantification kit. Briefly, the assay medium containing various concentrations of
each test compound (50, 100, 200 and 300 μg/mL) was incubated in assay medium composed of 20
mM of HEPES-K+ buffer (pH 7.2), 20 μM of NADH, 2 mM of pyruvate and 10 ng of purified
recombinant human LDHA protein for 10 min utes. The activity of LDHA would result in reduction
of pyruvate into lactate with concomitant oxidation of NADH to NAD +. Since NADH (reduced
LDHA, could be inversely quantified by monitoring the change in the intensity of the fluorescence
at 340 nm over a 10-minute period. The rate of the fluorescence change (slope) in treated samples
was compared to that obtained from negative control experiment (100 % enzymatic activity) to
determine the percentage of inhibition. The IC50 value—defined as the compound concentration
required to reduce the luminescence by 50%, compared to untreated control wells—was
determined for each compound from the corresponding dose–response curve generated by […]

NC(=O)C(=O)O [SO, sodium oxamate, reference compound]
IC50: 140 ± 7.64 µM
